Our source for the activity change, negative = inhibition values is PubChem BioAssay AID2517 (National Center for Advancing Translational Sciences (NCATS), 2010).

Chains of the proteins cited; added tags and fusions are not shown.
UniProt P27695, whole entry: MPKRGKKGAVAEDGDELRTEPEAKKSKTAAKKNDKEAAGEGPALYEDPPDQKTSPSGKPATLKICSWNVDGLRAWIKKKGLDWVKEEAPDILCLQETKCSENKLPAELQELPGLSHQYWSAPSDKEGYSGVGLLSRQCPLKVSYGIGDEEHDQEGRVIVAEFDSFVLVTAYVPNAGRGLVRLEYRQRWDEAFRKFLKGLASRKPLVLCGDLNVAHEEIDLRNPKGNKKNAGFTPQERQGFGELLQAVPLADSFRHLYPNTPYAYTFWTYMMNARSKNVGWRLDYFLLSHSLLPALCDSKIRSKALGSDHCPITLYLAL

The entries are a selection whose mix differs from that of the whole data set. Inconclusive results are not listed. Active and inactive are the calls of the source. Calls come from the whole dose curve; as a rule, active = well fitted inhibition curve with a large enough effect; inconclusive = small, poorly fitted or top-dose-only effect; inactive = no such curve, though single readings can be large or run the other way.

For the test, the target named is DNA repair nuclease/redox regulator APEX1 (Homo sapiens) (UniProt P27695). Kind of test: qHTS Assay for Inhibitors of the Human Apurinic/apyrimidinic Endonuclease 1 (APE1).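 Note: plate controls were vehicle for no effect and reference inhibitor for full effect; nearly all actives have a fitted effect of over 55% in size.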 The settings on record: recombinant APE1, TAMRA/BHQ-2 abasic DNA cleavage fluorescence; at 65.8 µM (top of the series).
As to `Cc1c(NP(C)(=O)Oc2ccc(C(C)C)cc2)c(=O)n(-c2ccccc2)n1C` (stereo not given), the activity change, negative = inhibition was inactive: -11.4%.
For the molecule `COc1ccc(OP(C)(=O)Nc2ccccn2)cc1` (stereo not given), the activity change, negative = inhibition was inactive: 4.28%.
The value for `CN(C)CCOC(=O)C(O)(c1ccccc1)C1CCCC1` (stereo not given) was inactive: 12.3%; that for `COc1ccccc1OP(C)(=O)Nc1ccc(Br)cc1` (stereo not given) was inactive: -0.052%; that for `O=C(OCCN1CCN(CCOCc2ccccc2)CC1)C(O)(c1ccccc1)c1ccccc1` was inactive: 5.53%.
In the case of `CP(=O)(Nc1ccccc1F)Oc1ccccc1` (stereo not given), the activity change, negative = inhibition was inactive: -8.38%.
In the case of `CC(C)c1ccc(OP(C)(=O)Nc2ccc(SC(F)(F)F)cc2)cc1` (stereo not given), the activity change, negative = inhibition is inactive: 1.3%.
Consider `CP(=O)(Nc1ccccc1)Oc1ccc(F)cc1` (stereo not given), for which the activity change, negative = inhibition was inactive: -2.92%.
In the case of `CCN(CC)CCCOC(=O)C(O)(c1ccccc1)C1CCCCC1` (stereo not given) it was inactive: -0.999%; in that of `CCOC(=O)c1ccc(NP(C)(=O)Oc2ccc(F)cc2)cc1` (stereo not given), inactive: 20.2%.
Consider `COc1ccc(OP(C)(=O)Nc2ccc(SC(F)(F)F)cc2)cc1` (stereo not given), for which the activity change, negative = inhibition was inactive: -6.89%.
Take `Cc1cccc([N+](=O)[O-])c1[N+](=O)[O-]`: the activity change, negative = inhibition is inactive: 2.85%.
`CCC(C)(OO)OOC(C)(CC)OO` (stereo not given): the activity change, negative = inhibition is inactive: -1.01%.
For `O=[N+]([O-])c1ccc(OP2(=O)COCCO2)cc1` (stereo not given), the activity change, negative = inhibition is inactive: 0.844%.
`Cc1cc(-c2cccc3ccccc23)c(C)cn1.O=[N+]([O-])c1cc([N+](=O)[O-])c(O)c([N+](=O)[O-])c1`: the activity change, negative = inhibition was inactive: 12.8%.
In the case of `Cc1ccc([N+](=O)[O-])c([N+](=O)[O-])c1`, the activity change, negative = inhibition is inactive: 3.48%.
Take `Cc1c([N+](=O)[O-])cccc1[N+](=O)[O-]`: the activity change, negative = inhibition is inactive: 4.76%.
The value for `CN(C)CCOC(=O)C(O)(c1ccccc1)C1CCCCC1` (stereo not given) was inactive: -1.7%; that for `COc1ccc(OP(C)(=O)Nc2cccc(Br)c2)cc1` (stereo not given) was inactive: -4.82%; that for `[NH4+].[O-][Cl+3]([O-])([O-])[O-]` was inactive: 12.3%.
As for `Cc1ccccc1NP(C)(=O)Nc1ccccc1C`, the activity change, negative = inhibition is inactive: 2.78%.
In the case of `CP(=O)(Nc1ccc2c(c1)OCCO2)Oc1ccccc1` (stereo not given), the activity change, negative = inhibition was inactive: 2.18%.
As for `CCOP(C)(=S)SCC(=O)NC(C)(CC)C(=O)O` (stereo not given), the activity change, negative = inhibition is inactive: 3.76%.
As to `CCOP(=O)(CC)OCC`, the activity change, negative = inhibition is inactive: -0.223%.
`CP(=O)(Nc1ccc(SC(F)(F)F)cc1)Oc1ccc(F)cc1` (stereo not given): the activity change, negative = inhibition was inactive: 1.8%.
